Earlier results, collected in PMC3211136.

The chains behind the UniProt entries cited, without tags or fusion partners. Residues count along the entry.
UniProt Q71F23, whole entry, looked up, tested part not stated: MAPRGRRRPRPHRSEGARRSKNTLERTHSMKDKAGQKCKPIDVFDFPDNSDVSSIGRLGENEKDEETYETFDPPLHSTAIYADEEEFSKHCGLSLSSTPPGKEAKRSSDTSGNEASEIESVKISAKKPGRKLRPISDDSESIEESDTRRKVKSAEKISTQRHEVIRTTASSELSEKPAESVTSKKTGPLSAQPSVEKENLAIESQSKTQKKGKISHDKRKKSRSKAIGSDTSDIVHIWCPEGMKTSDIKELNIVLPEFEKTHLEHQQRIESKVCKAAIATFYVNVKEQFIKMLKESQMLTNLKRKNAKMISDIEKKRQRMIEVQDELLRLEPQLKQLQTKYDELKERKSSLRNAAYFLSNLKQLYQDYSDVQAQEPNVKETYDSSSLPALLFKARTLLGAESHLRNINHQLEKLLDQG
UniProt P53350, 367-603: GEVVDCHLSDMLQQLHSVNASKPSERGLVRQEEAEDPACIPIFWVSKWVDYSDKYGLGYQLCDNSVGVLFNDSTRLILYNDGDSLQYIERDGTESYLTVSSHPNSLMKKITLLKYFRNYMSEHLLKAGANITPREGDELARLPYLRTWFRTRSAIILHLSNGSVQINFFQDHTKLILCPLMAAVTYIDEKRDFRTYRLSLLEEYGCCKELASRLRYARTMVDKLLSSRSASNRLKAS

Target: PBIP1 peptide (Homo sapiens) (UniProt Q71F23)

In the case of Plk1 PBD (from UniProt P53350), the Kd is listed as 0.45 µM.
